Measured values from patent publication US20230270881A1, “ONCOGENIC TRIM37 IS A TARGETABLE EPIGENETIC DRIVER OF METASTASIS AND LINKS CHEMORESISTANCE AND METASTATIC FATE IN TRIPLE-NEGATIVE BREAST CANCER” (University of Virginia Patent Foundation, priority 2020, published 2023).

Sequences of proteins named here, by UniProt entry; tags and fusion partners are left off. Residues count along the entry.
UniProt P15328, 25-234: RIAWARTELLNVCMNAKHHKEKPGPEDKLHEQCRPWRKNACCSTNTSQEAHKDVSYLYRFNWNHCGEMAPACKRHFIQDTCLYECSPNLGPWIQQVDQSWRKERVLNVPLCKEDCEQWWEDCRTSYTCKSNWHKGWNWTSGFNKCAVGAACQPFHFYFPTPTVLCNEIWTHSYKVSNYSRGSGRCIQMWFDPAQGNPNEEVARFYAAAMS

Target: recombinant FOLR1 (Homo sapiens, UniProt P15328)
Experiment: Binding studies by ELISA
Procedure: Binding studies by ELISA. Binding specificity and affinity of described Farletuzumab was determined by ELISA using the recombinant FOLR1 as described previously (Shivange et al., 2018). Briefly, recombinant FOLR1 protein was coated on 96-well plate by incubation overnight at 4° C. Different amounts of nanoparticles and free antibody were incubated in the coated plates and binding was detected by two-component peroxidase substrate kit (BD Biosciences).

B1: Fc-linkered Farletuzumab: Farletuzumab (anti-FOLR1) with a cysteine-containing Fc-linkered sequence at the C-terminus of a heavy chain (antibody, chains of the INN, looked up)
heavy: EVQLVESGGGVVQPGRSLRLSCSASGFTFSGYGLSWVRQAPGKGLEWVAMISSGGSYTYYADSVKGRFAISRDNAKNTLFLQMDSLRPEDTGVYFCARHGDDPAWFAYWGQGTPVTVSSASTKGPSVFPLAPSSKSTSGGTAALGCLVKDYFPEPVTVSWNSGALTSGVHTFPAVLQSSGLYSLSSVVTVPSSSLGTQTYICNVNHKPSNTKVDKKV[letters of human IgG1 Fc not shown]
light: DIQLTQSPSSLSASVGDRVTITCSVSSSISSNNLHWYQQKPGKAPKPWIYGTSNLASGVPSRFSGSGSGTDYTFTISSLQPEDIATYYCQQWSSYPYMYTFGQGTKVEIKRTVAAPSVFIFPPSDEQLKSGTASVVCLLNNFYPREAKVQWKVDNALQSGNSQESVTEQDSKDSTYSLSSTLTLSKADYEKHKVYACEVTHQGLSSPVTKSFNRGEC
modifications: C-terminal cysteine-containing linker on heavy chain
  binding affinity, Fc-linkered vs monomeric Farletuzumab: No significant differences
